Results reported in article PMC4773911 (Journal of the American Chemical Society, 2015).

Tested on: serine hydrolases
Type: binding, mouse
Details: 1 μM; including ABHD6 and ABHD12

CCCCCCCCCCC[C@@H](C[C@@H]1OC(=O)[C@H]1CCCCCC)OC(=O)[C@H](CC(C)C)NC=O [THL]
number of serine hydrolases whose labeling was blocked: at least 4
